Results reported in patent publication US7488745B2, “Compounds for the treatment of inflammatory disorders” (Schering Corporation, priority 2004, dated 2009).

The chains behind the UniProt entries cited, without tags or fusion partners. Residues count along the entry.
UniProt P78536, 215-477 S266A/N452Q limits assumed: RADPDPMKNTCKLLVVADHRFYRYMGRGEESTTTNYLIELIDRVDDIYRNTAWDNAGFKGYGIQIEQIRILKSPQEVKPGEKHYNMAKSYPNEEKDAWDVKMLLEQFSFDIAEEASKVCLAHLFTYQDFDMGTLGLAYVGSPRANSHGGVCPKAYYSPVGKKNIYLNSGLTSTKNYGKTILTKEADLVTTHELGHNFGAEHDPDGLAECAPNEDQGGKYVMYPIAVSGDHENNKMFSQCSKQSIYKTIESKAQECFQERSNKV

Target: purified catalytic domain of recombinant human TACE (rhTACEc) (Homo sapiens, UniProt P78536, N452Q/S266A)
Test: TACE kinetic assay: cleavage of internally quenched peptide substrate SPDL-3 (fluorescence)
[1] = Ki (nM), TABLE 6000, Ki printed as class symbols A-D
[2] = Ki (nM), TACE inhibitory activity, class letters

SMILES	Ki [1] [nM]	further results
COc1ccc2c(c1)C(=O)N(C[C@@]1(c3ccc(-c4cnccc4C)cc3)NC(=O)NC1=O)C2 [Compound 9928]	< 10	
COc1ccc2c(c1)C(=O)N(C[C@@]1(c3cc(-c4ccccc4)nn3-c3nccc(C(F)(F)F)n3)NC(=O)NC1=O)C2 [Compound 9930]	< 10	
COc1ccc2c(c1)C(=O)N(C[C@@]1(c3cc(-c4ccccc4)nn3-c3ccccn3)NC(=O)NC1=O)C2 [Compound 9931]	< 10	
O=C1NC(=O)[C@](CN2Cc3ccc(O)cc3C2=O)(c2cn(-c3cnccn3)nn2)N1 [Compound 9932]	< 10	
COc1ccc2c(c1)C(=O)N(C[C@@]1(c3cc4c(cc(C)c[n+]4[O-])o3)NC(=O)NC1=O)C2 [Compound 9933]	< 10	
COc1ccc2c(c1)C(=O)N(C[C@@]1(c3cc4cc5ccccc5nc4o3)NC(=O)NC1=O)C2 [Compound 9934]	< 10	
COc1ccc2c(c1)C(=O)N(C[C@@]1(c3oc4cccnc4c3O)NC(=O)NC1=O)C2 [Compound 9935]	< 10	
COc1ccc2c(c1)C(=O)N(C[C@@]1(c3cc4ccc(OC)cc4o3)NC(=O)NC1=O)C2 [Compound 9937]	< 10	
COc1ccc2c(c1)C(=O)N(C[C@@]1(c3cc4cc(C5(C)NC(=O)NC5=O)ccc4o3)NC(=O)NC1=O)C2 (some centres unmarked) [Compound 9938]	< 10	Ki (Ki (nM), Specific TACE inhibitory activity (Ki values)): 0.37 nM
COc1ccc2c(c1)C(=O)N(C[C@@]1(c3cc4ccc(C5(C)NC(=O)NC5=O)cc4o3)NC(=O)NC1=O)C2 (some centres unmarked) [Compound 9939]	< 10	
COc1ccc2c(c1)C(=O)N(C[C@@]1(c3cc4ccc(C)nc4o3)NC(=O)NC1=O)C2 [Compound 9940]	< 10	
COc1ccc2c(c1)C(=O)N(CC1(c3nc4ccccc4n3C)NC(=O)NC1=O)C2 (centres unmarked) [Compound 9942]	< 10	
COc1ccc2c(c1)C(=O)N(C[C@@]1(c3cnn(C4CCC4)c3)NC(=O)NC1=O)C2 [Compound 90031]	< 10	
CC#CCOc1ccc2c(c1)C(=O)N(C[C@@]1(c3ccc(-c4cnn(CC5CC5)c4)cc3)NC(=O)NC1=O)C2 [Compound 50071338095]		Ki (Ki Rating, TACE inhibitory activity, Table 3000): < 10 nM
O=C1NC(=O)[C@](CN2Cc3ccc(F)cc3C2=O)(c2ccc(-c3cc[n+]([O-])cc3)cc2)N1 [compound 247]		Ki [2]: < 10 nM
CCNc1nnc(CCC2(CN3Cc4ccc(Cl)cc4C3=O)NC(=O)NC2=O)o1 (centres unmarked) [compound 282]		Ki [2]: 10 to 100 nM
